# Measured properties of organic chemicals

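These are experimental values that the OPERA curators gathered from public databases to train and test their QSAR models. A listed value is a point estimate from one report or more. Method and conditions are not stated for these values. The measured form (salt, isomer or mixture) is not always the one drawn. Some entries may be limits or estimates that an upstream database listed as plain numbers.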

Melting points are in °C. The boiling point refers to atmospheric pressure (760 mmHg), by the definition of the set. logP is the log10 of the octanol-water partition coefficient; higher is more lipophilic. Solubility in water is on a log10 molar scale (set defined at 25 °C). Vapor pressure is log10 of mmHg; the set covers 15 to 30 °C, mostly 20 to 25 °C. Henry's law constant (air-water partitioning) is log10 of atm·m3/mol, nominally at 25 °C. The unbound fraction in human plasma runs from 0 (all bound) to 1 (all free). Intrinsic clearance (human, µL/min per 10^6 hepatocytes): higher is faster turnover, and 0 stands for none detected. Cells with "–" have no entry in this list.

| MP (°C) | boiling point (°C) | log Kow | water solubility (log10 mol/L) | log vapor pressure (log10 mmHg) | log Henry constant (log10 atm·m3/mol) | plasma fu | intrinsic clearance (µL/min/10^6 cells) | compound |
|---|---|---|---|---|---|---|---|---|
| -139 | 171.3 | – | – | – | – | – | – | CC(=O)O[Si](C)(OC(C)=O)OC(C)C |
| 8.5 | 277 | – | -2.324 | -4.179 | – | – | – | Cc1ccc2c(c1)C(=O)C(C)C2 (stereo not given) |
| – | 271 | 7.63 | – | – | – | – | – | CCCCC(CC)COC(=O)/C=C(/C)C(=O)OCC(CC)CCCC (stereo partly drawn) |
| – | – | – | – | – | – | 0.107 | 817 | COC(=O)c1ccccc1O |
| 105.4 | – | – | -6.23 | – | – | – | – | C=CC(=O)OCCCCOC(=O)Oc1ccc2cc(C(=O)Oc3ccc(OC(=O)c4ccc5cc(OC(=O)OCCCCOC(=O)C=C)ccc5c4)c(C(=O)OC)c3)ccc2c1 |
| 10.43 | – | – | -6.79 | -12.33 | – | – | – | CCCCCN(CCCCC)C(=S)[S-].CCCCCN(CCCCC)C(=S)[S-].[Zn+2] |
| – | – | 7.5 | -6.504 | – | – | – | – | CC(C)[C@@H](C)/C=C/[C@@H](C)[C@H]1CC[C@H]2/C(=C/C=C3\C[C@@H](O)CC[C@@H]3C)CCC[C@]12C |
| – | – | 4.3 | -4.183 | – | – | – | – | CCCCC(F)(F)[C@@]1(O)CC[C@H]2[C@@H](CC(=O)[C@@H]2CCCCCCC(=O)O)O1 |
| – | 338.2 | 5.723 | -5.911 | -4.297 | – | – | – | O=C1CCCCCCCC=CCCCCCCO1 |
| – | – | 2.225 | 0.805 | – | – | – | – | OCC1CCC(CO)CC1 (stereo not given) |
| 5.4 | – | 4.78 | – | -1.153 | – | – | – | CC(C)CCOC(=O)c1ccccc1O |
| – | – | – | – | -4.284 | -10.68 | – | – | NCCCOCCOCCOCCCN |
| 205 | – | – | – | -5.274 | – | – | – | CCN(CC)C1=C[C@@H]2Oc3cc(N(CC)CC)c(C)cc3C(c3ccccc3C(=O)OC)=C2C=C1C |
| – | – | 2.675 | – | -1.84 | – | – | – | CC(=O)c1ccc(Cl)cc1Cl |
| 242 | – | -2.48 | – | – | – | – | – | Nc1ccc(/N=N/c2c(N)ccc3cc(S(=O)(=O)[O-])cc(O)c23)c(S(=O)(=O)[O-])c1.[Na+].[Na+] |
| – | – | 2.4 | -1.711 | -0.966 | – | – | – | C=C(C)[C@@H]1CC[C@@H](C)C[C@H]1O |
| – | – | 2.07 | -1.621 | -0.099 | – | – | – | CC(=O)CCC=C(C)C |
| -51 | – | – | -6.232 | -7.62 | – | – | – | CCC(COC(=O)CC(C)CC(C)(C)C)(COC(=O)CC(C)CC(C)(C)C)COC(=O)CC(C)CC(C)(C)C (stereo not given) |
| -13.9 | – | – | – | -1.802 | – | – | – | Cl[Si](Cl)(C1CCCC1)C1CCCC1 |
| 162.4 | – | 4.2 | -6.629 | -9.246 | – | – | – | Cc1ccc(S(=O)(=O)n2cc(Br)c3cc(F)cnc32)cc1 |
| -10.13 | – | 2.48 | -2.22 | – | – | – | – | CCCC(=O)OCCc1ccccc1 |
| – | – | – | – | – | – | 0.955 | 396 | Cn1cnc2c1c(=O)[nH]c(=O)n2C |
| -17 | – | 5.5 | – | -2.591 | – | – | – | FC(F)(F)C(F)(F)C(F)(F)C(F)(F)C(F)(F)C(F)(F)CCSCCCCS |
| – | – | 5.55 | -3.484 | – | – | – | – | C=CC(=O)OC1CCC(C(C)(C)C)CC1 (stereo not given) |
| – | – | – | – | – | – | 0.0125 | 19.1 | CCCCCCCCCCCCN1CCCC1=O |
| 323 | – | – | -8.424 | – | – | – | – | COc1ccccc1NC(=O)C(N=Nc1ccc(-c2ccc(N=NC(C(C)=O)C(=O)Nc3ccccc3OC)c(Cl)c2)cc1Cl)C(C)=O (stereo not given) |
| 319 | – | 0.64 | -4.916 | – | – | – | – | NC(=O)c1ccc(N=C(O)c2ccc(N)cc2)cc1 |
| – | – | 3.69 | -2.466 | -0.727 | – | – | – | C=CC(C)(O)CCCC(C)C (stereo not given) |
| – | – | 5.03 | – | -3.928 | – | – | – | Brc1cccc(Oc2cccc(Br)c2)c1 |
| – | – | 1.35 | -2.136 | -6.314 | – | – | – | O=[N+]([O-])c1cc(O)ccc1NCCCO |

The last 4 entries again:

{"smiles": "NC(=O)c1ccc(N=C(O)c2ccc(N)cc2)cc1", "MP (°C)": "319", "log Kow": "0.64", "water solubility (log10 mol/L)": "-4.916"}
{"smiles": "C=CC(C)(O)CCCC(C)C", "stereo": "stereo not given", "log Kow": "3.69", "water solubility (log10 mol/L)": "-2.466", "log vapor pressure (log10 mmHg)": "-0.727"}
{"smiles": "Brc1cccc(Oc2cccc(Br)c2)c1", "log Kow": "5.03", "log vapor pressure (log10 mmHg)": "-3.928"}
{"smiles": "O=[N+]([O-])c1cc(O)ccc1NCCCO", "log Kow": "1.35", "water solubility (log10 mol/L)": "-2.136", "log vapor pressure (log10 mmHg)": "-6.314"}

Data: OPERA 2.9 data sets, kmansouri/OPERA on GitHub.